Assay results: patent publication US7585941B2 (priority 2004, dated 2009)

Amino acid sequences for entries named in this document (tags omitted). Residues count along the entry.
UniProt P33535, whole entry: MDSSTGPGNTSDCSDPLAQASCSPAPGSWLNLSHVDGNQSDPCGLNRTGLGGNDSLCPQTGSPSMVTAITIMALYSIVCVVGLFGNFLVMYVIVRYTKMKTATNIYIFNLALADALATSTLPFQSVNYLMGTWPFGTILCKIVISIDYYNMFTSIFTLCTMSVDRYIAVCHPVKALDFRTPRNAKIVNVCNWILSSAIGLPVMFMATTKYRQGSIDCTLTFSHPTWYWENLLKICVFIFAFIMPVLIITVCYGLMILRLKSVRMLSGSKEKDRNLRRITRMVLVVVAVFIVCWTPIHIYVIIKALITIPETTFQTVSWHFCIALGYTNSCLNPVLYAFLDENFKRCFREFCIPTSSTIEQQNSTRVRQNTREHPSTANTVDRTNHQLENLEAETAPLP
UniProt P33535, 1-386 limits assumed: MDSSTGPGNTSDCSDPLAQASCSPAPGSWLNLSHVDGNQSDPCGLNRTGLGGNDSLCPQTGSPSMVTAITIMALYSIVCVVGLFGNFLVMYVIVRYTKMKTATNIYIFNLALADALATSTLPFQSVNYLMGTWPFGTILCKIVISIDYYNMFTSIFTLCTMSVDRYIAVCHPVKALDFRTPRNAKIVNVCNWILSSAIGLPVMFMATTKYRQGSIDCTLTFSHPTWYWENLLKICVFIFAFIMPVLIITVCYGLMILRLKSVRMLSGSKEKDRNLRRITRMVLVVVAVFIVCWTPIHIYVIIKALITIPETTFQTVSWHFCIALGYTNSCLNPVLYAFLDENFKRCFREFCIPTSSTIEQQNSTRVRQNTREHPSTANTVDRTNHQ
UniProt P33535, 1-390 isoform P33535-2: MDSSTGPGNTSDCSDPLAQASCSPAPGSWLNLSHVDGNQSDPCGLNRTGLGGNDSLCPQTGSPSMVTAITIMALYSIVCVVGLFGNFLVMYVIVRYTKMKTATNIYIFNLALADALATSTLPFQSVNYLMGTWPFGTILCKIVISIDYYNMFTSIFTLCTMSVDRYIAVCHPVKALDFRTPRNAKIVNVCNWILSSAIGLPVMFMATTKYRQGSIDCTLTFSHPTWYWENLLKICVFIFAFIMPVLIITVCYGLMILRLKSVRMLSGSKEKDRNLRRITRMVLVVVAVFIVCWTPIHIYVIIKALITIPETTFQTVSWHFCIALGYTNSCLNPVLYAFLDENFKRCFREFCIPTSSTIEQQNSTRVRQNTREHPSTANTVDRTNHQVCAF
UniProt P33535, 1-451 isoform P33535-6: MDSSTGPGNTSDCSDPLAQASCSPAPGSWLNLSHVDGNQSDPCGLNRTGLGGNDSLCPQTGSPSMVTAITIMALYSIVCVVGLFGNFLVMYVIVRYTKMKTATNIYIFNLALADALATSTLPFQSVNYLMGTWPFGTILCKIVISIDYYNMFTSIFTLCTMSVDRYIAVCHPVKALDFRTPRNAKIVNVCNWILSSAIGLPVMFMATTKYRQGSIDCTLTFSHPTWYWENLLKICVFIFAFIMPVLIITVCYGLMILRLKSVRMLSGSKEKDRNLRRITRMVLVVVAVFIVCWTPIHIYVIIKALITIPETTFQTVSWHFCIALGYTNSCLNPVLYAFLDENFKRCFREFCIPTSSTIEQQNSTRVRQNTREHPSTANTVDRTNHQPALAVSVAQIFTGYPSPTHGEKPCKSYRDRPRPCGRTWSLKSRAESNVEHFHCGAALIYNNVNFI
UniProt P33535, 1-387 isoform P33535-8 I238V: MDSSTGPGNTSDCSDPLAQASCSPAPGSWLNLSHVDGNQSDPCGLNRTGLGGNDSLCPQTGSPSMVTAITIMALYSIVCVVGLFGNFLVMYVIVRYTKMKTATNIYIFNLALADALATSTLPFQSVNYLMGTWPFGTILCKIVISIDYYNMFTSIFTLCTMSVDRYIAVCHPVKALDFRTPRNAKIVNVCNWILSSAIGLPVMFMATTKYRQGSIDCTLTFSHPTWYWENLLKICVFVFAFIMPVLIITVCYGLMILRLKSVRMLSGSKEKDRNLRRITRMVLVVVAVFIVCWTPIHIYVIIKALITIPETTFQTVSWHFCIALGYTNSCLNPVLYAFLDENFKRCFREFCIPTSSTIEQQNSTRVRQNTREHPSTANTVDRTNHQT

How the values were obtained:
rMOR-1 [1] = target: T1, rMOR-1 (Rattus norvegicus, UniProt P33535); assay type: binding; conditions: read-out: Ki Value rMOR-1
rMOR-1 (no E4) = target: T2, rMOR-1 (no E4) (Rattus norvegicus, UniProt P33535); assay type: binding; conditions: read-out: Ki Value rMOR-1 (no E4)
T2 construct: rMOR-1 no E 4; expressed in transfected cells

rMOR-1A [2] = target: T3, rMOR-1A (Rattus norvegicus, UniProt P33535); assay type: binding; conditions: read-out: Ki Value rMOR-1A
rMOR-1C1 [3] = target: T4, rMOR-1C1 (Rattus norvegicus, UniProt P33535); assay type: binding; conditions: read-out: Ki Value rMOR-1C1
rMOR-1D [4] = target: T5, rMOR-1D (Rattus norvegicus, UniProt P33535); assay type: binding; conditions: read-out: Ki Value rMOR-1D
rMOR-1 [5] = target: T1, rMOR-1; assay type: biochemical
rMOR-1 (no Exon 4) = rMOR-1 (no Exon 4) (Rattus norvegicus, UniProt P33535); assay type: biochemical
rMOR-1A [6] = target: T3, rMOR-1A; assay type: biochemical
rMOR-1C1 [7] = target: T4, rMOR-1C1; assay type: biochemical
rMOR-1D [8] = target: T5, rMOR-1D; assay type: biochemical
hMOR-1 = hMOR-1 (Homo sapiens, UniProt P35372); assay type: binding; conditions: read-out: Ki value hMOR-1 wt
hMOR-1(exons 1-3) = target: T6, hMOR-1(exons 1-3) (Homo sapiens, UniProt P35372); assay type: binding; conditions: read-out: Ki value hMOR-1 w/o exon 4
T6 construct: A cDNA fragment containing only exons 1, 2 and 3 was also generated by PCR; expressed in transfected cells

hMOR-1A = hMOR-1A (Homo sapiens, UniProt P35372); assay type: binding; conditions: read-out: Ki value hMOR-1A
hMOR-1B1 = hMOR-1B1 (Homo sapiens, UniProt P35372); assay type: binding; conditions: read-out: Ki value hMOR-1B1
hMOR-1B2 = hMOR-1B2 (Homo sapiens, UniProt P35372); assay type: binding; conditions: read-out: Ki value hMOR-1B2
hMOR-1B3 = hMOR-1B3 (Homo sapiens, UniProt P35372); assay type: binding; conditions: read-out: Ki value hMOR-1B3
hMOR-1B4 = hMOR-1B4 (Homo sapiens, UniProt P35372); assay type: binding; conditions: read-out: Ki value hMOR-1B4
hMOR-1B5 = hMOR-1B5 (Homo sapiens, UniProt P35372); assay type: binding; conditions: read-out: Ki value hMOR-1B5
hMOR-1Y = hMOR-1Y (Homo sapiens, UniProt P35372); assay type: binding; conditions: read-out: Ki value hMOR-1B6

Substance	Ki (rMOR-1 [1])	Ki (rMOR-1 (no E4))	Ki (rMOR-1A [2])	Ki (rMOR-1C1 [3])	Ki (rMOR-1D [4])	EC50 (rMOR-1 [5])	EC50 (rMOR-1 (no Exon 4))	EC50 (rMOR-1A [6])	EC50 (rMOR-1C1 [7])	EC50 (rMOR-1D [8])	Ki (hMOR-1)	Ki (hMOR-1(exons 1-3))	Ki (hMOR-1A)	Ki (hMOR-1B1)	Ki (hMOR-1B2)	Ki (hMOR-1B3)	Ki (hMOR-1B4)	Ki (hMOR-1B5)	Ki (hMOR-1Y)
Endomorphin 1	4.1 ± 0.7 nM	4.4 ± 0.1 nM	6.5 ± 0.3 nM	3.9 ± 0.1 nM	3.9 ± 0.4 nM	14 ± 4 nM	114 ± 11 nM	15 ± 3 nM	54 ± 8 nM	100 ± 26 nM									
Endomorphin 2											34.1 ± 25.4 nM	4.6 ± 1.3 nM	5.6 ± 3 nM	5.4 ± 1.1 nM	19.9 ± 2.2 nM	6.3 ± 2.5 nM	22.5 ± 3.4 nM	9.6 ± 5.2 nM	9.4 ± 5.1 nM
